The values that follow come from patent US4886667A, “External preparation composition” (priority 1985, dated 1989).

Assay [1] has as its system Peptostreptococcus sp. (22 isolated strains). The experiment in a line: MIC against clinically isolated strains (cumulation percent).
Assay [2] deals with Bacteroides fragilis (48 isolated strains). Described as above. It is filed as cell-based. As to conditions: MIC 3.13 μg/ml.

Structures are written as SMILES.

`CN(C)[C@@H]1C(=O)C(C(N)=O)=C(O)[C@@]2(O)C(=O)C3=C(O)c4c(O)cccc4[C@@](C)(O)[C@H]3C[C@@H]12` [R, Tetracycline]: the “Cumulation percent of MIC” value in assay [1] (MIC 0.39 μg/ml) worked out at 5%; in assay [1] (MIC 0.78 μg/ml), 9%; in assay [1] (MIC 1.56 μg/ml), 14%; in assay [1] (MIC 6.25 μg/ml) it was 32%; in assay [1] (MIC 25 μg/ml), 68%; in assay [1] (MIC 100 μg/ml) it was 100%.

Take `CC1=C(C(=O)O)N2C(=O)[C@@H](NC(=O)[C@H](N)c3ccccc3)[C@H]2SC1` [S, Cefalexin]: the “Cumulation percent of MIC” value is recorded as 23% in assay [1] (MIC 6.25 μg/ml); 45% in assay [1] (MIC 25 μg/ml); 68% in assay [1] (MIC 50 μg/ml); 86% in assay [1] (MIC 100 μg/ml); 100% in assay [1] (MIC 200 μg/ml); 4% in assay [2].
